Chains of the proteins cited; added tags and fusions are not shown.
UniProt O15554, whole entry: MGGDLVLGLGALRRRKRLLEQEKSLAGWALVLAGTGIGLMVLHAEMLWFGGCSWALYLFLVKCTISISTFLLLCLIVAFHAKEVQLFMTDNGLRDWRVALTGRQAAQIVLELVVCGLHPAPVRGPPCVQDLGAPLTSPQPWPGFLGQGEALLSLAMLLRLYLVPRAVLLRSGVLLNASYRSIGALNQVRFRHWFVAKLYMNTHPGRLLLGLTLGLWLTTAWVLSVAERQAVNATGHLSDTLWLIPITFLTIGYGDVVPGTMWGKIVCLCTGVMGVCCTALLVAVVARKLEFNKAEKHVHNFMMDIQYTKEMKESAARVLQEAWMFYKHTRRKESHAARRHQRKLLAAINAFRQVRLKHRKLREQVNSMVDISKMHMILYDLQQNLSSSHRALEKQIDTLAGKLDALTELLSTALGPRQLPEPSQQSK

In patent US20230416203A1, “POTENT AND SELECTIVE INHIBITORS OF THE CALCIUM-ACTIVATED POTASSIUM CHANNEL, KCA3.1, FOR USE AS PLATFORM THERAPEUTICS” (priority 2020, published 2023):

Molecular target: KCa3.1 channel (Homo sapiens, UniProt O15554)
Test: KCa3.1 patch-clamp (QPatch HTX automated and manual)
Format: cell-based
Conditions: block of KCa3.1, patch clamp (Table 2)

IC50: 5 µM
Structure (SMILES): COC(=O)C1=C(C#N)NC(C)=C(C(=O)OC(C)C)C1c1cccc([N+](=O)[O-])c1 (stereo not shown)
